Assays:
[1] = tested on: Akt phosphorylation in wild-type MEFs; assay: Akt phosphorylation in primary wild-type MEFs (Western blot); assay type: cell-based, mouse
[2] = tested on: actin stress fibers in NIH 3T3 cells
[3] = tested on: Akt substrates GSK3α/β, TSC2, and FoxO1/O3a in L6 myotubes; assay: Akt substrate phosphorylation in L6 myotubes (Western blot); assay type: cell-based
[4] = tested on: 4EBP1 bound to eIF4E in L6 myotube lysates; assay: Cap pull-down assay (m7GTP beads); assay type: cell-based
Method: L6 myotubes from one well of a six-well plate were lysed in 300 μl of cap lysis buffer as described above. 50 μl of detergent-free cap lysis buffer and 20 μl of pre-washed cap beads were added to 150 μl of cleared lysate and incubated at 4 °C overnight with tumbling. The beads were washed twice with 400 μl of cap wash buffer (cap lysis buffer with 0.5% NP-40 instead of 1% NP-40) and twice with 500 μl of PBS. The beads were boiled in SDS-PAGE sample buffer and the retained proteins analyzed by Western blot. All antibodies were from Cell Signaling Technologies except for the anti-eIF4E antibody, which was from BD Biosciences.

CC(C)n1nc(-c2cc3cc(O)ccc3[nH]2)c2c(N)ncnc21 [PP242]
constitutive phosphorylation of the turn motif of Akt at T450 [1]: no effect
phosphorylation of Akt at both S473 and T308 [1]: inhibited
morphology or abundance of actin stress fibers [2]: no obvious effect
phosphorylation of Akt and its substrates [3]: only partially inhibited
insulin-stimulated release of 4EBP1 from eIF4E (retention on m7GTP beads) [4]: much larger retention of 4EBP1
